In US20260070979A1 one finds Kd data, which are given here for 5 substances.

pKd: −log10 of the molar value.

The assay has as its target Cyno TIGIT-Flag/His (cynomolgus monkey). As to the kind of experiment: SPR (ProteOn XPR36), antibody captured, cyno TIGIT-Flag/His as analyte, 25 C, 1:1 model.

Turning to KY09 (antibody), the pKd was 7.75.
In turn, KY17 (antibody) had a pKd of 7.51.
To KY10 (antibody) belongs 8.58.
To KY18 (antibody) belongs 7.85; to KY11 (antibody), 7.92.
